For one assay, the system named is MEF (C57BL/6). Nature of the assay: MTT cell viability assay, MEF (C57BL/6). Type of assay: cell-based. As to conditions: ratio of EC50 MEF to EC50 MCF-7. As to the method: (§1) Cells were then treated with compound at various concentrations in 0.2 mL media. After the 72-hour incubation period, cells were washed in PBS (3×100 μL), and 10 μL MTT reagent was added with 100 μL fresh media. Cells were then incubated for 4 hr in a humidified chamber at 37° C. with 5% CO2. Insoluble formazan crystals were solubilized by addition of 0.1 mL detergent solution (4 hr at room temp., dark). Resulting colored solutions were then quantified at an absorbance of 570 nm.
In general terms: Tetrazolium dyes change colour on reduction, which living cells bring about.

The test system of another assay is IMR-90. Nature of the assay: Cell viability, IMR-90. The class given is cell-based. The conditions noted are these: ratio of EC50 IMR-90 to EC50 MCF-7. As to the method:
as §1

Turning to `CCc1ccc2c(c1)S/C(=c1/s/c(=C\c3scc[n+]3Cc3ccccc3C(=O)OC)n(CC)c1=O)N2C.[Cl-]` [JG-345], the “SI MEF/MCF-7” value in the assay on MEF (C57BL/6) is reported as 20. In the assay on IMR-90, the “SI IMR-90/MCF-7” value was found to be 65.
Taken in the same sequence, the figures for `CCn1c(=O)/c(=C2\Sc3cc(Br)ccc3N2C)s/c1=C\c1scc[n+]1Cc1ccc(C(F)(F)F)o1.[Cl-]` [JG-294] were 35 and 98.

The values above are taken from patent US10221171B2, “Oxathiazole thiazolium Hsp 70 inhibitors” (THE REGENTS OF THE UNIVERSITY OF CALIFORNIA, priority 2015, dated 2019).
